# Ab-95 light chain CDR variants: yeast mating affinities

Source: Engelhart et al. 2022 (doi:10.1038/s41597-022-01779-4), MIT Lincoln Laboratory and A-Alpha Bio; data file from the FLAb repository.

Target peptide (SARS-CoV-2 spike, HR2 region): PDVDLGDISGINAS

The variants keep the heavy chain, the linker and the frameworks of Ab-95 (scFv order VH, a (GGGGS)3 linker, VL).
VH: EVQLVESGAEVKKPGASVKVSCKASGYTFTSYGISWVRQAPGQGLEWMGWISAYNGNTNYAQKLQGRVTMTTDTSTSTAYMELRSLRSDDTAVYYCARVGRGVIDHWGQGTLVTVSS
VL: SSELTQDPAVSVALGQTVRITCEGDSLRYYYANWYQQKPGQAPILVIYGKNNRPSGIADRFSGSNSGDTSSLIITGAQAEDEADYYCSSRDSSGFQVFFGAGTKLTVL

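The starting antibody came from a phage panning campaign against this peptide. In library AAYL52, one, two or three CDR residues were substituted; doubles and triples were drawn at random. Affinity was read by AlphaSeq, a pooled yeast mating assay with surface-displayed partners. Mating (16 h, 30 °C) was followed by selection of diploids and sequencing of their barcodes. Scores were corrected for input abundance and mapped to Kd with protein pairs of known affinity run in the same pool. Mating was done three times.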

The parent's light chain CDRs are EGDSLRYYYAN, GKNNRPS, SSRDSSGFQVF; each variant's own CDRs replace them letter for letter. This list gathers variants with a substitution at N51 (VL, numbered from residue 1). Values are log10 of the apparent Kd in nM; lower means stronger binding. Where no diploid with the target was found in that replicate, the entry reads "ND": below detection, most likely a poor binder, though not proof of it. For reference, the parent read 2.31 as the reference entry and 2.25 as a member of this library.

EGVSLRYYYAN | GKWNRPS | SSRDSSGAQVF: 5.62, 3.86, 4.44 (controls 6 of 9).
RGDSLRYYYAN | GKCNRPS | SSIDSSGFQVF: ND, ND, ND (controls 1 of 9).
EGNSLRLYYAN | GKANRPS | SSRDSSGFQVF: ND, ND, 3.55 (controls 0 of 9).
EGDSLRYYYAN | GKHNRPS | SSRDSQGFQVL: ND, 5.17, ND (controls 2 of 9).
EGDQLRYYYAN | GKQNRPS | SSRDSSGFNVF: ND, ND, 4.22 (controls 2 of 9).
EGDSLRYYYAN | GKYNRLS | SSRLSSGFQVF: ND, ND, 3.86 (controls 4 of 9).
EGVSLRYYYAN | VKQNRPS | SSRDSSGFQVF: 4.02, ND, ND (controls 2 of 9).
EGDSLRYYYAN | GKWDRPS | SSRDSSMFQVF: ND, ND, ND (controls 4 of 9).
EGDSLRTYYAN | GKMNRPS | SSRDSSGFQDF: 4.43, 3.84, ND (controls 2 of 9).
EGDSLRYYYIN | GKRIRPS | SSRDSSGFQVF: 4.08, 4.86, 2.30 (controls 5 of 9).
EGDSLRYYYAN | GKRNRFS | SSRDSSGFQVF: 3.85, 3.06, ND (controls 3 of 9).
ESDSLRYYYAN | GKGNRPS | SSRDESGFQVF: 3.44, 3.95, 3.65 (controls 2 of 9).
EHDSLRYYYAN | GKEIRPS | SSRDSSGFQVF: ND, 4.22, ND (controls 2 of 9).
EGDSLRYYYAN | GKWNRGS | SSRDSSGFQNF: 5.45, ND, ND (controls 5 of 9).
EGDSLRYYYAN | GKLNRPS | SSRDSSGFQVF: 3.35, 2.41, 3.35 (controls 1 of 9).
EGDSLRYYYAN | GKVWRPS | SSRDNSGFQVF: ND, ND, ND (controls 1 of 9).
CGDSLRYYYAN | GKMDRPS | SSRDSSGFQVF: 3.63, 3.56, 3.91 (controls 3 of 9).
EGDSLRYYYAN | GKLNRPS | SSWDSSCFQVF: 5.13, 5.54, ND (controls 6 of 9).
EGDSLRYYYAN | GKLNAPS | SCRDSSGFQVF: ND, ND, 4.30 (controls 6 of 9).
EGDSLRYYYAN | GKFNRPS | SSRTSSKFQVF: 4.40, 3.98, 4.19 (controls 2 of 9).
MGDSLRYYYAN | GKKNRPS | SSRDSSGDQVF: 4.11, 5.25, 2.60 (controls 3 of 9).
RGDCLRYYYAN | GKKNRPS | SSRDSSGFQVF: ND, 3.64, ND (controls 3 of 9).
EGDSLRYYGAN | GKDNRPC | SSRDSSGFQVF: 1.66, 1.66, 1.22 (controls 5 of 9).
EGDSLRYYYAN | GKLNRPS | SSRFSSFFQVF: 4.55, 3.10, 3.27 (controls 1 of 9).
EGDHLRYYYAN | GKINRPS | SSRDSFGFQVF: 3.95, 4.07, ND (controls 2 of 9).
EGCSLRYYYAN | AKFNRPS | SSRDSSGFQVF: 3.55, 4.50, ND (controls 4 of 9).
TGDSLRYYYAN | GKQNRPS | SSRDCSGFQVF: 4.01, ND, ND (controls 1 of 9).
EGDSLRYYYAN | GKPNRPF | SSRDSMGFQVF: ND, ND, ND (controls 0 of 9).
EGDSLRYYYAN | GKCNRPS | SSRNSSGTQVF: 4.96, ND, ND (controls 4 of 9).
EGDSLRYYTAN | GKSNRGS | SSRDSSGFQVF: 2.39, 2.47, 2.41 (controls 4 of 9).
EGDSLRVYYAN | GKYNRPS | SSTDSSGFQVF: 3.74, 4.22, ND (controls 4 of 9).
EGDSLRYYYAN | GKSNRPS | SSRPSSGFQVF: 3.41, 3.55, 2.82 (controls 6 of 9).
EGDSWRYYYAN | GKVNRPS | TSRDSSGFQVF: ND, 3.72, ND (controls 1 of 9).
EGDFLRYYYAN | GKPNRPS | SSVDSSGFQVF: 4.47, 3.56, ND (controls 3 of 9).
LGDSLRYYYAN | GKANRPS | SSRDSSGHQVF: ND, 4.35, ND (controls 1 of 9).
EGDSLRYYYAN | GKWNRPS | SSKDSSGFDVF: ND, ND, ND (controls 0 of 9).
EGDSLRYYYAN | GKYNRPS | SSTDSSWFQVF: 3.85, 4.09, ND (controls 5 of 9).
EGDSLRYYYAN | GKQNAPS | SSRDSMGFQVF: ND, 5.60, ND (controls 4 of 9).
EGDSLRYYYAN | GKMNKPS | SSRDSDGFQVF: ND, 3.29, 4.40 (controls 3 of 9).
EGDSHRYYYAN | GKQNRPS | SSRDSSGFQVW: 3.56, 4.61, ND (controls 3 of 9).
EGDSLRYYYAN | KKVNRPS | SSRDTSGFQVF: 3.16, ND, ND (controls 2 of 9).
EGDSLRYYYAN | GKMNRPS | SQRDSSGFQLF: 3.38, ND, 3.10 (controls 2 of 9).
EGDSCRYYDAN | GKLNRPS | SSRDSSGFQVF: 3.42, ND, 4.33 (controls 1 of 9).
EGDSLRYYYAN | GKINRPS | SSMDSSGFQVF: ND, ND, 4.35 (controls 1 of 9).
EGDSLDYYYAN | GKANRPN | SSRDSSGFQVF: 3.48, 2.90, 3.02 (controls 2 of 9).
EGDSLRYYYKN | GKANRPS | SSRDSSGFQVF: 4.08, 3.81, ND (controls 3 of 9).
IGSSLRYYYAN | GKQNRPS | SSRDSSGFQVF: ND, ND, ND (controls 0 of 9).
EGDSLRYYYAS | GKQNRPS | SSRDSSGFQVF: 2.86, 2.56, 2.29 (controls 2 of 9).
EGDSLRYWYAN | GKKNRPS | SSMDSSGFQVF: 4.44, ND, ND (controls 2 of 9).

A selection of 5 entries from above:

{"CDR-L1": "EGDSLRYYYAN", "CDR-L2": "GKMNKPS", "CDR-L3": "SSRDSDGFQVF", "replicates, log10 nM": "ND, 3.29, 4.40", "signal with controls": "3 of 9"}
{"CDR-L1": "EGDSLRYWYAN", "CDR-L2": "GKKNRPS", "CDR-L3": "SSMDSSGFQVF", "replicates, log10 nM": "4.44, ND, ND", "signal with controls": "2 of 9"}
{"CDR-L1": "EGDHLRYYYAN", "CDR-L2": "GKINRPS", "CDR-L3": "SSRDSFGFQVF", "replicates, log10 nM": "3.95, 4.07, ND", "signal with controls": "2 of 9"}
{"CDR-L1": "EGDSLRYYYAS", "CDR-L2": "GKQNRPS", "CDR-L3": "SSRDSSGFQVF", "replicates, log10 nM": "2.86, 2.56, 2.29", "signal with controls": "2 of 9"}
{"CDR-L1": "TGDSLRYYYAN", "CDR-L2": "GKQNRPS", "CDR-L3": "SSRDCSGFQVF", "replicates, log10 nM": "4.01, ND, ND", "signal with controls": "1 of 9"}

Three control strains display no target. For library AAYL52, 28% of the pairings with them gave a signal, with a median of 3.91 and one signal in twenty below 2.90, so weak values seen in few replicates may be background. The control count says in how many pairings with the empty strains this scFv gave a signal.